# Apparent affinities of Ab-14 variants for a coronavirus HR2 peptide

Binding partner: SARS-CoV-2 spike HR2 peptide, sequence PDVDLGDISGINAS.

Parent scFv Ab-14: VH joined to VL by a 15-residue (Gly4Ser)3 linker. Changes lie in the heavy chain CDRs alone.
VH: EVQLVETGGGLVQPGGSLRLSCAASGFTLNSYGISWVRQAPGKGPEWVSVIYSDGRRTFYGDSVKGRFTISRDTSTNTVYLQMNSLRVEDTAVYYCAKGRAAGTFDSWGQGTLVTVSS
VL: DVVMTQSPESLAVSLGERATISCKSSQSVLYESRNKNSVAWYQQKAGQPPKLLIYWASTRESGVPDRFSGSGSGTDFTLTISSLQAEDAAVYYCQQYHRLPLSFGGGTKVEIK

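Phage display of a naive human antibody library on the peptide gave the parent. Designed CDR sequences, proposed from the first random library and measured here. Group labels follow the data file (Ctrl: baseline library sampled from a position-specific scoring matrix, with some repeated check sequences; Rand: our label for a block that the file lists under HC and that is probably the random mutants of the ten best first-round binders; En: ensemble of fine-tuned language models; GP: Gaussian process model; GPLM: also part of the Gaussian process libraries; HC: hill climbing; Gen: genetic algorithm; Gibbs: Gibbs sampling; a sequence that several methods proposed may carry one label only). In AlphaSeq, yeast of one mating type display the scFv and yeast of the other type display the target. Binding brings cells together so that they mate, and sequencing counts the barcode pairs among the diploids. Read counts were normalised to the haploid input and turned into Kd by a linear fit to BCL2-family pairs of known affinity, for each replicate. There are six technical replicates.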

Each variant is given by its three heavy chain CDRs, as the data file delimits them; those of the parent are GFTLNSYGIS, VIYSDGRRTFYGDSVK, GRAAGTFDS. Numbers give log10(Kd / nM), so 0 is 1 nM and 3 is 1 µM. Smaller is tighter. A mean of the replicates is given; it leaves out those without a signal. "no signal" means that the variant was in the library but no mating with the target was seen in any replicate; the authors take this as a sign of poor binding, and no number exists. Background: pairings of all heavy chain designs with three empty control strains gave a value in 1% of cases (median 2.08, 5th percentile 0.84). Values in that range, when seen in few replicates, are hard to tell from nonspecific mating.

| CDR-H1 | CDR-H2 | CDR-H3 | group | mean log10 Kd (nM) | detected |
|---|---|---|---|---|---|
| GFQLNEYGIS | VIYSDGRRTFYGDSVK | GRIAGTFDS | GP_Gen | -0.45 | 6/6 |
| GDTLSSYGIS | VIYSDGRRTFYGDSVK | GRAAGTFDS | Ctrl | 2.22 | 3/6 |
| GFSLNDYGIS | VIYSDGRRTFYADSVK | GRTAGTFDK | GPLM_Gen | -0.43 | 6/6 |
| GFDLNEYGIS | VIYADGRRTAYIDSVK | GNIAGTFDS | En_HC | -0.89 | 6/6 |
| GFDLNEYGIS | VIYADGMRTQYIDSVK | GNEAGTFDD | En_HC | no signal | 0/6 |
| GFQLNEYGIS | VIYSDGRRTFYGDSVK | GRTAGTFDS | GPLM_Gen | 1.42 | 5/6 |
| GFTLNSYGIS | VIYSDGRRTAYGDSVK | GRAAGTFDL | Ctrl | 0.96 | 6/6 |
| GFTLNEYGIS | VIYSDGRRTFYGDSVK | GKAAGTFDE | GP_HC | 0.44 | 6/6 |
| GFTLNDYGIS | VIYSDGLRTFYIDSVK | GRAAGTFDS | GP_HC | 0.64 | 6/6 |
| GFTLNSYGIS | VIYSDGRRTFYTDSVK | GRAAGTFDS | Ctrl | 0.52 | 1/6 |
| GFDINEYGIS | VIYADGKRTAYADSVK | GEAAGTFDV | En_HC | 0.10 | 3/6 |
| GFSIDEYGIS | VIYADGMRTAYVESVK | GTIDNNITT | En_Gibbs | no signal | 0/6 |
| GFDLNEYGIS | VIYADGMRTAYADKVK | GNNAGTFDV | En_Gen | -0.47 | 6/6 |
| GFWLDSYGIS | VIYSDGRRTFYGDSVK | HRRAGGFLS | Ctrl | 1.75 | 1/6 |
| GFTLNSYGIS | VIYSDGRRAGYGDSVK | GRAAGTFDS | Ctrl | 0.95 | 6/6 |
| GSSLDEYGIS | VIYADGQRVQYADTVK | GIQAGNVDV | En_Gibbs | no signal | 0/6 |
| GFEIEEYGIS | VIYADGQRKSYINSVK | GQVNVTGMY | En_Gibbs | no signal | 0/6 |
| GFTLDSYGIS | VIYSDGRRTFYIDSVK | GRAAGTFVS | GP_HC | no signal | 0/6 |
| GFSLNSYGIS | VIYADGRRTFYGDSVK | GQAAGTFDG | GP_Gen | 0.46 | 6/6 |
| GFNLDQYGIS | VIYADGQRTQYANDVK | GKYAGSMLS | En_Gibbs | no signal | 0/6 |
| GFTLNSYGIS | VIYSDGRRTFYGDSVK | GHEAGTFDS | GPLM_Gibbs | 0.09 | 6/6 |
| GFTLNSYGIS | VIYSDGRRTFYSDSVK | GGAAGTFDS | GPLM_HC | no signal | 0/6 |
| HFTLNSYGIS | VIYSDGERQFYGGSVK | GRAAGTFDS | Ctrl | no signal | 0/6 |
| GVNLDEYGIS | VIYADGVRSHYAESVK | GMHGDFGVV | En_Gibbs | 4.35 | 1/6 |
| GFNINEYGIS | VIYADGVRTHYVDDVK | GKHTGVKMM | En_Gibbs | 1.65 | 1/6 |
| GMDLQDYGIS | VIYADGRRTAFSHSVK | GQIAGTFNF | En_Gibbs | -0.49 | 6/6 |
| GFTPNSYGIS | VIYSDGRRTFYKDSVK | GRAAGTFDS | Ctrl | no signal | 0/6 |
| GFDLNEYGIS | VIYADGVRTSYDDSVK | GQLAGTFDQ | En_HC | -0.43 | 6/6 |
| GYDLVEYGIS | VIYADGQRTVYSDDVK | GNHGGTIFT | En_Gibbs | no signal | 0/6 |
| GFSLNEYGIS | VIYSDGRRTFYGDSVK | GEAAGTFDR | GP_HC | 0.30 | 6/6 |
| GFTLNSDGIS | VIYADGRRTFGGDSVK | GRAAGTNKS | Rand | no signal | 0/6 |
| GFTLNSYGIS | VIYSLGRRTFYADSVK | GRAVGTFDS | Ctrl | no signal | 0/6 |
| GFDLDEYGIS | VIYADGMRTAYTDDVK | GNVAGTFDV | En_Gen | -0.77 | 6/6 |
| GFDLNEYGIS | VIYADGRRTFYTDSVK | GQEAGTFDV | En_HC | -0.60 | 6/6 |
| KFDLNSYGIS | VIYSDGRRTFYGDSVK | GKQAGTFDS | GP_Gen | 1.01 | 4/6 |
| GFTLNDYGIS | VIYSDGRRTFYHDSVK | GRTAGTFIS | GP_HC | 2.02 | 3/6 |
| GFDLNEYGIS | VIYADGRRTFYADSVK | GNVAGTFNV | En_HC | -0.57 | 6/6 |
| GYNLDEYGIS | VIYSDGLRTFYGDSVK | GRHAGTFRS | Ctrl | no signal | 0/6 |
| GFDLDEYGIS | VIYADGRRTAYADSVK | GQVAGTFDL | En_Gen | -0.47 | 6/6 |
| GFSLNSYGIS | VIYSDGRRTFYADDVK | GRNAGTFDS | GP_Gen | -0.07 | 6/6 |
| GFTLNEYGIS | VIYSDGRRTFYEDSVK | GRHAGTFDS | GP_HC | 0.76 | 6/6 |
| GFVLNDYGIS | VIYSDGRRTFYGDSVK | GKAAGTFDS | GPLM_HC | 0.57 | 5/6 |
| GFDLNEYGIS | VIYADGMRTFYSDSVK | GQTAGTFDV | En_HC | -0.56 | 6/6 |
| GFDLEEYGIS | VIYADGRRTAYADSVK | GNVAGTFDI | En_Gen | -0.50 | 6/6 |
| GFDLNSYGQS | VSYCDGRRTFTGDSVK | GRAAGWFNS | Rand | no signal | 0/6 |
| GFDLNEYGIS | VIYADGRRTFYADSVK | GGEAGTFDM | En_HC | -0.44 | 6/6 |
| GFDLNSYGIS | VIYSDGRRTFYGDDVK | GNAAGTFDK | GP_Gibbs | 0.18 | 6/6 |
| GNSLQEYGIS | VIYADGMRNQYANTVK | GMEAGVFVY | En_Gibbs | no signal | 0/6 |
| GFTLDQYGIS | VIYSDGRRTFYVDSVK | GRAAGTFPS | Ctrl | no signal | 0/6 |
| GFHLNSYGIS | VIYSDGRRTFYGDSVK | GKTAGTFDS | GPLM_Gibbs | 1.23 | 4/6 |
| GFTLNEYGIS | VIYSDGRRTFYGDSVK | GRAAGTFVS | Ctrl+GPLM_HC | 2.00 | 2/12 |
| GFDLNEYGIS | VIYADGRRTSYKDSVK | GEEAGTFNV | En_HC | 0.20 | 6/6 |
| GFDLNEYGIS | VIYADGFREAYAESVK | GLIQTGWTV | En_Gibbs | no signal | 0/6 |
| GFTLNSYGIS | VIYSDGRRTFYGDSVK | GGAAGQFDS | Ctrl | no signal | 0/6 |
| GQTLNEYGIS | VIYSDGRRTFYVDSVK | GRAAGGFDS | Ctrl | no signal | 0/6 |
| GFDLEEYGIS | VIYADGMRQYAIDNVK | GLISGKGKT | En_Gibbs | no signal | 0/6 |
| GFSLDEYGIS | VIYADGRRTFYADSVK | GNSAGTFDA | En_HC | -0.04 | 6/6 |
| GFNLDEYGIS | VIYADGMRTAYSDSVK | GNQAGTFDV | En_Gen | 0.43 | 5/6 |
| GFTLNSYGIS | VIYSDGWRTFYIDSVK | GNAAGTFDS | GP_Gen | 1.11 | 1/6 |
| GFDLDEYGIS | VIYADGMRTAYSDSVK | GEVAGTFDQ | En_Gen | -1.00 | 6/6 |

For reference, 5 entries of the list once more:

CDR-H1,CDR-H2,CDR-H3,group,mean log10 Kd (nM),detected
GFSLNSYGIS,VIYADGRRTFYGDSVK,GQAAGTFDG,GP_Gen,0.46,6/6
GFTLNEYGIS,VIYSDGRRTFYGDSVK,GKAAGTFDE,GP_HC,0.44,6/6
GFNLDQYGIS,VIYADGQRTQYANDVK,GKYAGSMLS,En_Gibbs,no signal,0/6
GFTLNSYGIS,VIYSDGWRTFYIDSVK,GNAAGTFDS,GP_Gen,1.11,1/6
GFDLNEYGIS,VIYADGVRTSYDDSVK,GQLAGTFDQ,En_HC,-0.43,6/6

The range of this assay differs from that of the first round, and the authors advise against merging the two. The parent sequence was in this pool as ten entries: three were never detected, three once, and four in most replicates, with averages from 0.34 to 2.37. The authors averaged sequences with at least three values out of six and counted those with two or fewer as poor binders. Where one sequence has several entries in the source, the replicates are pooled.

Data: MIT Lincoln Laboratory AlphaSeq set, Li et al. 2023, doi:10.1038/s41467-023-39022-2, as distributed in FLAb.